Test results published in PubChem BioAssay AID504429 (National Center for Advancing Translational Sciences (NCATS), 2011).
This is a selection; strong and weak results do not stand in their true shares. Active and inactive are the calls of the source.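 Rule for the calls: active = compounds whose dose response shows an inhibitor phenotype against the kinase Dyrk1b; inactive = compounds showing no inhibitor phenotype.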

Protein sequences, listed by entry. Tags and fused reporters are not part of them.
UniProt Q9Y463, whole entry, looked up: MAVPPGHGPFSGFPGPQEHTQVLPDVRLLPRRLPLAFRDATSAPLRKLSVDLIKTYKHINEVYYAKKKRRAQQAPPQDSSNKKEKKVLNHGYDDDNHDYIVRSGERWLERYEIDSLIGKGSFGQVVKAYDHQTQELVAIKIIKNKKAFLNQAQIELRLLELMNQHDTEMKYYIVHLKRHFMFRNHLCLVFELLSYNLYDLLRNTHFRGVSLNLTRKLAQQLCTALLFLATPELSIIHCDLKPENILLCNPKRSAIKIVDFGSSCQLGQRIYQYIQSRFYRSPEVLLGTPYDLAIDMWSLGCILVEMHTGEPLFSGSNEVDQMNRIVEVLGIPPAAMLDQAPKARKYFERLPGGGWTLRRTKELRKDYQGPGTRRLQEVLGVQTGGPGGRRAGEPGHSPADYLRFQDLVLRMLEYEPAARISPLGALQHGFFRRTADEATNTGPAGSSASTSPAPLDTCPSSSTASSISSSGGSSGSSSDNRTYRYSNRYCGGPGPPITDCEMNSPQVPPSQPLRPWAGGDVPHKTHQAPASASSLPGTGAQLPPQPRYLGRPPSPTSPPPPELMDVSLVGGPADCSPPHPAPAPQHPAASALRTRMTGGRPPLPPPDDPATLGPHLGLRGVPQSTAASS

These molecules were tested against Dual specificity tyrosine-phosphorylation-regulated kinase 1B (Homo sapiens) (UniProt Q9Y463) (assay: Kinase Inhibition Study on Inhibitors of Dyrk1b (Reaction Biology data)). Conditions: Recombinant Dyrk1b kinase assay, 10 uM ATP.
Source text: NIH Molecular Libraries Probe Production Centers Network [MLPCN] NIH Chemical Genomics Center [NCGC] MLPCN Grant: 1R03MH084827-01 Assay Submitter (PI): Tom Misteli NCGC Assay Overview: Alternative splicing of pre-mRNAs plays a major role in the regulation of eukaryotic gene expression. Alternative splicing is now thought to be one of the primary reasons for the complexity of higher organisms leading to an average of three protein isoforms per gene. Aberrant splicing can lead to a number of diseases and is known to play a role in rare genetic diseases such as progeria syndrome. Hutchinson-Gilford Progeria Syndrome (HGPS) is a pediatric premature aging disease caused by a spontaneous mutation in the lamin A/C (LMNA) gene due to a single point mutation in the lamin A gene effecting 1 in 4 million people. To identify both specific splicing modulators of the lamin A gene as well as general splicing modulators, a cell-based HTS assay was developed using a minigene reporter system (AIDs, 1459 & 1487). […] The Clk family is part of the CMGC group of protein kinases which includes Dyrks and are essential kinases found in all eukaryotes. […] This AID is to summarize the activity of these analogs in Dyrk1b.
All kinase reactions were performed using 10 uM ATP in the assay. 100% activity was taken from kinase reactions with DMSO alone (the vehicle used for compound stock solutions).

| Structure (SMILES) | Potency |
| --- | --- |
| c1csc(CNc2ncnc3ccc(-c4ccc5c(c4)OCO5)cc23)c1 | active: 451 nM |
| c1coc(CCNc2ncnc3ccc(-c4ccc5c(c4)OCO5)cc23)c1 | active: 130 nM |
